Assay results from IntAct's records for PubMed 35512704.

B1: RAC-alpha serine/threonine-protein kinase (Homo sapiens), P31749 (parent)
chain: MSDVAIVKEGWLHKRGEYIKTWRPRYFLLKNDGTFIGYKERPQDVDQREAPLNNFSVAQCQLMKTERPRPNTFIIRCLQWTTVIERTFHVETPEEREEWTTAIQTVADGLKKQEEEEMDFRSGSPSDNSGAEEMEVSLAKPKHRVTMNEFEYLKLLGKGTFGKVILVKEKATGRYYAMKILKKEVIVAKDEVAHTLTENRVLQNSRHPFLTALKYSFQTHDRLCFVMEYANGGELFFHLSRERVFSEDRARFYGAEIVSALDYLHSEKNVVYRDLKLENLMLDKDGHIKITDFGLCKEGIKDGATMKTFCGTPEYLAPEVLEDNDYGRAVDWWGLGVVMYEMMCGRLPFYNQDHEKLFELILMEEIRFPRTLGPEAKSLLSGLLKKDPKQRLGGGSEDAKEIMQHRFFAGIVWQHVYEKKLSPPFKPQVTSETDTRYFDEEFTAQMITITPPDQDDSMECVDSERRPHFPQFSYSASGTA

Variants of: B1
Conditions: with cdc27_human CDC27

Variant	effect of a mutation on the interaction
MSDVAIVKEGWLHKRGKYIKTWRPRYFLLKNDGTFIGYKERPQDVDQREAPLNNFSVAQCQLMKTERPRPNTFIIRCLQWTTVIERTFHVETPEEREEWTTAIQTVADGLKKQEEEEMDFRSGSPSDNSGAEEMEVSLAKPKHRVTMNEFEYLKLLGKGTFGKVILVKEKATGRYYAMKILKKEVIVAKDEVAHTLTENRVLQNSRHPFLTALKYSFQTHDRLCFVMEYANGGELFFHLSRERVFSEDRARFYGAEIVSALDYLHSEKNVVYRDLKLENLMLDKDGHIKITDFGLCKEGIKDGATMKTFCGTPEYLAPEVLEDNDYGRAVDWWGLGVVMYEMMCGRLPFYNQDHEKLFELILMEEIRFPRTLGPEAKSLLSGLLKKDPKQRLGGGSEDAKEIMQHRFFAGIVWQHVYEKKLSPPFKPQVTSETDTRYFDEEFTAQMITITPPDQDDSMECVDSERRPHFPQFSYSASGTA [E17K]	with no effect

Variants of: B1
Conditions: with cdc42_human CDC42, P60953

Variant	effect of a mutation on the interaction
MSDVAIVKEGWLHKRGKYIKTWRPRYFLLKNDGTFIGYKERPQDVDQREAPLNNFSVAQCQLMKTERPRPNTFIIRCLQWTTVIERTFHVETPEEREEWTTAIQTVADGLKKQEEEEMDFRSGSPSDNSGAEEMEVSLAKPKHRVTMNEFEYLKLLGKGTFGKVILVKEKATGRYYAMKILKKEVIVAKDEVAHTLTENRVLQNSRHPFLTALKYSFQTHDRLCFVMEYANGGELFFHLSRERVFSEDRARFYGAEIVSALDYLHSEKNVVYRDLKLENLMLDKDGHIKITDFGLCKEGIKDGATMKTFCGTPEYLAPEVLEDNDYGRAVDWWGLGVVMYEMMCGRLPFYNQDHEKLFELILMEEIRFPRTLGPEAKSLLSGLLKKDPKQRLGGGSEDAKEIMQHRFFAGIVWQHVYEKKLSPPFKPQVTSETDTRYFDEEFTAQMITITPPDQDDSMECVDSERRPHFPQFSYSASGTA [E17K]	with no effect

Variants of: B1
Conditions: with cdc73_human CDC73

Variant	effect of a mutation on the interaction
MSDVAIVKEGWLHKRGKYIKTWRPRYFLLKNDGTFIGYKERPQDVDQREAPLNNFSVAQCQLMKTERPRPNTFIIRCLQWTTVIERTFHVETPEEREEWTTAIQTVADGLKKQEEEEMDFRSGSPSDNSGAEEMEVSLAKPKHRVTMNEFEYLKLLGKGTFGKVILVKEKATGRYYAMKILKKEVIVAKDEVAHTLTENRVLQNSRHPFLTALKYSFQTHDRLCFVMEYANGGELFFHLSRERVFSEDRARFYGAEIVSALDYLHSEKNVVYRDLKLENLMLDKDGHIKITDFGLCKEGIKDGATMKTFCGTPEYLAPEVLEDNDYGRAVDWWGLGVVMYEMMCGRLPFYNQDHEKLFELILMEEIRFPRTLGPEAKSLLSGLLKKDPKQRLGGGSEDAKEIMQHRFFAGIVWQHVYEKKLSPPFKPQVTSETDTRYFDEEFTAQMITITPPDQDDSMECVDSERRPHFPQFSYSASGTA [E17K]	with no effect

Variants of: B1
Conditions: with cdk4_human CDK4, P11802

Variant	effect of a mutation on the interaction
MSDVAIVKEGWLHKRGKYIKTWRPRYFLLKNDGTFIGYKERPQDVDQREAPLNNFSVAQCQLMKTERPRPNTFIIRCLQWTTVIERTFHVETPEEREEWTTAIQTVADGLKKQEEEEMDFRSGSPSDNSGAEEMEVSLAKPKHRVTMNEFEYLKLLGKGTFGKVILVKEKATGRYYAMKILKKEVIVAKDEVAHTLTENRVLQNSRHPFLTALKYSFQTHDRLCFVMEYANGGELFFHLSRERVFSEDRARFYGAEIVSALDYLHSEKNVVYRDLKLENLMLDKDGHIKITDFGLCKEGIKDGATMKTFCGTPEYLAPEVLEDNDYGRAVDWWGLGVVMYEMMCGRLPFYNQDHEKLFELILMEEIRFPRTLGPEAKSLLSGLLKKDPKQRLGGGSEDAKEIMQHRFFAGIVWQHVYEKKLSPPFKPQVTSETDTRYFDEEFTAQMITITPPDQDDSMECVDSERRPHFPQFSYSASGTA [E17K]	with no effect

Variants of: B1
Conditions: with cdn1a_human CDKN1A

Variant	effect of a mutation on the interaction
MSDVAIVKEGWLHKRGKYIKTWRPRYFLLKNDGTFIGYKERPQDVDQREAPLNNFSVAQCQLMKTERPRPNTFIIRCLQWTTVIERTFHVETPEEREEWTTAIQTVADGLKKQEEEEMDFRSGSPSDNSGAEEMEVSLAKPKHRVTMNEFEYLKLLGKGTFGKVILVKEKATGRYYAMKILKKEVIVAKDEVAHTLTENRVLQNSRHPFLTALKYSFQTHDRLCFVMEYANGGELFFHLSRERVFSEDRARFYGAEIVSALDYLHSEKNVVYRDLKLENLMLDKDGHIKITDFGLCKEGIKDGATMKTFCGTPEYLAPEVLEDNDYGRAVDWWGLGVVMYEMMCGRLPFYNQDHEKLFELILMEEIRFPRTLGPEAKSLLSGLLKKDPKQRLGGGSEDAKEIMQHRFFAGIVWQHVYEKKLSPPFKPQVTSETDTRYFDEEFTAQMITITPPDQDDSMECVDSERRPHFPQFSYSASGTA [E17K]	with no effect

Variants of: B1
Conditions: with cdn1b_human CDKN1B

Variant	effect of a mutation on the interaction
MSDVAIVKEGWLHKRGKYIKTWRPRYFLLKNDGTFIGYKERPQDVDQREAPLNNFSVAQCQLMKTERPRPNTFIIRCLQWTTVIERTFHVETPEEREEWTTAIQTVADGLKKQEEEEMDFRSGSPSDNSGAEEMEVSLAKPKHRVTMNEFEYLKLLGKGTFGKVILVKEKATGRYYAMKILKKEVIVAKDEVAHTLTENRVLQNSRHPFLTALKYSFQTHDRLCFVMEYANGGELFFHLSRERVFSEDRARFYGAEIVSALDYLHSEKNVVYRDLKLENLMLDKDGHIKITDFGLCKEGIKDGATMKTFCGTPEYLAPEVLEDNDYGRAVDWWGLGVVMYEMMCGRLPFYNQDHEKLFELILMEEIRFPRTLGPEAKSLLSGLLKKDPKQRLGGGSEDAKEIMQHRFFAGIVWQHVYEKKLSPPFKPQVTSETDTRYFDEEFTAQMITITPPDQDDSMECVDSERRPHFPQFSYSASGTA [E17K]	with no effect

Variants of: B1
Conditions: with cebpa_human CEBPA

Variant	effect of a mutation on the interaction
MSDVAIVKEGWLHKRGKYIKTWRPRYFLLKNDGTFIGYKERPQDVDQREAPLNNFSVAQCQLMKTERPRPNTFIIRCLQWTTVIERTFHVETPEEREEWTTAIQTVADGLKKQEEEEMDFRSGSPSDNSGAEEMEVSLAKPKHRVTMNEFEYLKLLGKGTFGKVILVKEKATGRYYAMKILKKEVIVAKDEVAHTLTENRVLQNSRHPFLTALKYSFQTHDRLCFVMEYANGGELFFHLSRERVFSEDRARFYGAEIVSALDYLHSEKNVVYRDLKLENLMLDKDGHIKITDFGLCKEGIKDGATMKTFCGTPEYLAPEVLEDNDYGRAVDWWGLGVVMYEMMCGRLPFYNQDHEKLFELILMEEIRFPRTLGPEAKSLLSGLLKKDPKQRLGGGSEDAKEIMQHRFFAGIVWQHVYEKKLSPPFKPQVTSETDTRYFDEEFTAQMITITPPDQDDSMECVDSERRPHFPQFSYSASGTA [E17K]	with no effect

Variants of: B1
Conditions: with chk2_human CHEK2

Variant	effect of a mutation on the interaction
MSDVAIVKEGWLHKRGKYIKTWRPRYFLLKNDGTFIGYKERPQDVDQREAPLNNFSVAQCQLMKTERPRPNTFIIRCLQWTTVIERTFHVETPEEREEWTTAIQTVADGLKKQEEEEMDFRSGSPSDNSGAEEMEVSLAKPKHRVTMNEFEYLKLLGKGTFGKVILVKEKATGRYYAMKILKKEVIVAKDEVAHTLTENRVLQNSRHPFLTALKYSFQTHDRLCFVMEYANGGELFFHLSRERVFSEDRARFYGAEIVSALDYLHSEKNVVYRDLKLENLMLDKDGHIKITDFGLCKEGIKDGATMKTFCGTPEYLAPEVLEDNDYGRAVDWWGLGVVMYEMMCGRLPFYNQDHEKLFELILMEEIRFPRTLGPEAKSLLSGLLKKDPKQRLGGGSEDAKEIMQHRFFAGIVWQHVYEKKLSPPFKPQVTSETDTRYFDEEFTAQMITITPPDQDDSMECVDSERRPHFPQFSYSASGTA [E17K]	with no effect
